Laboratory results reported in ChEMBL document CHEMBL1949670, “Probes for narcotic receptor mediated phenomena. 44. Synthesis of an N-substituted 4-hydroxy-5-(3-hydroxyphenyl)morphan with high affinity and selective μ-antagonist activity” (Eur J Med Chem, 2012).

Chains of the proteins cited; added tags and fusions are not shown.
UniProt P41143, whole entry, looked up: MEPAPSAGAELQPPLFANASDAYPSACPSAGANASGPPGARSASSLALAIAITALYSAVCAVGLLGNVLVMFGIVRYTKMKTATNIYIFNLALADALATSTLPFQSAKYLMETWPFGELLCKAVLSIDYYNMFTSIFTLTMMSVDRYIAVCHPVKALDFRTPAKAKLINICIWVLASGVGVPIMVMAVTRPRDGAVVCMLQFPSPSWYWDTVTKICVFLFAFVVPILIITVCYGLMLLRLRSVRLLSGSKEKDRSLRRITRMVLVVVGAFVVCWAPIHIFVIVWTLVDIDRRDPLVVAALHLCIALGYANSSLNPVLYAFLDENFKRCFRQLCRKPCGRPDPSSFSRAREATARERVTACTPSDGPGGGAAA
UniProt P35372, whole entry, looked up: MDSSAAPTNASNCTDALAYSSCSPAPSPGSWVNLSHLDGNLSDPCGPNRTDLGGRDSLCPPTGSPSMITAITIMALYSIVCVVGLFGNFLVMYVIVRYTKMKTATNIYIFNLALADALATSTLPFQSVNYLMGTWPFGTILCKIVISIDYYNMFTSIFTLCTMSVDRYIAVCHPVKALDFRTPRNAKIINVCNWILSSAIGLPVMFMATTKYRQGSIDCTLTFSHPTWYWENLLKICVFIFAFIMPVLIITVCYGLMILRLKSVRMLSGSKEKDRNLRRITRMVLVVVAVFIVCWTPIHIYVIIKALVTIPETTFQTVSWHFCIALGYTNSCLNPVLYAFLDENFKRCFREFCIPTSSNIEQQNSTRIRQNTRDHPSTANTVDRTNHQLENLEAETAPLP

Columns and labels:
[1] = biological target: Delta-type opioid receptor (Homo sapiens, UniProt P41143); test: Displacement of [3H]-DADLE from human delta opioid receptor expressed in CHO cells membrane after 2 hrs by liquid scintillation counting
Mu-type opioid receptor = Mu-type opioid receptor (Homo sapiens, UniProt P35372); details: cho

SMILES: CN(C(=O)Cc1ccccc1)[C@H]1CC[C@@]2(CCCO2)C[C@@H]1N1CCCC1
- Ki [1]: 12.5 µM
- Ki (Mu-type opioid receptor): 2.37 µM
